Test results taken from ChEMBL document CHEMBL1146036, “Structural determinants of opioid activity in derivatives of 14-aminomorphinones: effect of substitution in the aromatic ring of cinnamoylaminomorphinones and codeinones” (J Med Chem, 2006).

Sequences of proteins named here, by UniProt entry; tags and fusion partners are left off.
UniProt P41143, whole entry, looked up: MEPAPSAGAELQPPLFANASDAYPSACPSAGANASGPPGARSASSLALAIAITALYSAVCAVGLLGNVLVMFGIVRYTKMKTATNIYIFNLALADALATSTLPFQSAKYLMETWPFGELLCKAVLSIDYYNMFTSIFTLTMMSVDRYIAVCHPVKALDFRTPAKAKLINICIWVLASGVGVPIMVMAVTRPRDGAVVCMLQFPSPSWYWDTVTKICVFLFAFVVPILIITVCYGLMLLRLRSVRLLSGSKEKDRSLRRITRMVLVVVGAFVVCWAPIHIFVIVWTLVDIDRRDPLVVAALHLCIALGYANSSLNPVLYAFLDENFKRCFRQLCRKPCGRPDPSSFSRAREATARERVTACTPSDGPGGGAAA

Biological target: Delta-type opioid receptor (Homo sapiens, UniProt P41143)
Assay: Stimulation of [35S]GTPgammaS binding to human recombinant DOR relative to DPDPE
Format: functional

CN1CC[C@]23c4c5cccc4O[C@H]2C(=O)CC[C@@]3(NC(=O)/C=C/c2ccccc2Cl)[C@H]1C5
Activity: 115%
